Values of other authors as cited in publication PMC3170638.

Protein sequences, listed by entry. Tags and fused reporters are not part of them. Residues count along the entry.
UniProt P35222, 2-781: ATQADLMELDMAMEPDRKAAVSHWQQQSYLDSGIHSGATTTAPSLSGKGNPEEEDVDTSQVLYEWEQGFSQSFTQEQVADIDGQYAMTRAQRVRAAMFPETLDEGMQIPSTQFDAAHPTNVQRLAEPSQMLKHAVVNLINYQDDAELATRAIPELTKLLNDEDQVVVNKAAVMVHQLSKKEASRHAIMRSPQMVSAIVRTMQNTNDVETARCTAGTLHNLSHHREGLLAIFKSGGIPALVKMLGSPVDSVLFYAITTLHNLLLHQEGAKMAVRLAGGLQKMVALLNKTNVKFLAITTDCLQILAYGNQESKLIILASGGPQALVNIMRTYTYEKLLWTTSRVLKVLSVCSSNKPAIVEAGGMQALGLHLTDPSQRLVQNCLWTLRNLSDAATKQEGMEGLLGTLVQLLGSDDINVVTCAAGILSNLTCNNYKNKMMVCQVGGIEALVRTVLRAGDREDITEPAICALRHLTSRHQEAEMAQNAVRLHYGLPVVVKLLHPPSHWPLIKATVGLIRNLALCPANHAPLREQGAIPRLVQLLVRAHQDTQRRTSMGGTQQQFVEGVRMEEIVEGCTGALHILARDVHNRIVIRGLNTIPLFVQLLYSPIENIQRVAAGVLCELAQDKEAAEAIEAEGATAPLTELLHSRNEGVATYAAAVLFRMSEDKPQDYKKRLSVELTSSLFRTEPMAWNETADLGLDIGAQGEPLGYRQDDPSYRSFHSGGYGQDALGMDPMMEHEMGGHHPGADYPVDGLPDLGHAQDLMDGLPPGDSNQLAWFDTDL
UniProt P25054, 1484-1528: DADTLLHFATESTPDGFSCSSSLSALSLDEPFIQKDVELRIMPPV

Biological target: β-catenin (Homo sapiens) (UniProt P35222)

In the case of “APC third 20aa repeat (from UniProt P25054)”, the Kd is listed as 1.5 nM.
